Measurements: patent US8653263B2 (Janssen Pharmaceutica, priority 2009, dated 2014)

By UniProt entry, the sequences of proteins in these tests, tags left out.
UniProt O43614, whole entry: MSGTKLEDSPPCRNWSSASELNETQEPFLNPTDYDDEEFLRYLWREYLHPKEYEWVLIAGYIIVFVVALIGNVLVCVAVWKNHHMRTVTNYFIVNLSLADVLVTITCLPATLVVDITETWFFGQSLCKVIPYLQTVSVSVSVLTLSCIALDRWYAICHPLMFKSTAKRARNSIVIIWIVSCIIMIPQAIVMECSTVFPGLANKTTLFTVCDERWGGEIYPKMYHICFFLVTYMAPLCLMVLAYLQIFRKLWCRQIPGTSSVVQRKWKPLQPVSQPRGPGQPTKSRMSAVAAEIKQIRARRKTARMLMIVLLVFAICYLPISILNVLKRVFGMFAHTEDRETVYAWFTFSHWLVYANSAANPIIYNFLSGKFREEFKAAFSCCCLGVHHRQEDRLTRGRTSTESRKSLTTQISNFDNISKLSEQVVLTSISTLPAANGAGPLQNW

biological target: human orexin-2 receptor (Homo sapiens (Human), UniProt O43614); experiment: Human orexin 2 receptor radioligand binding ([3H]-EMPA competition); settings: read-out: OR 2 Ki; HEK293 cells stably expressing human orexin-2 receptor; [3H]-EMPA 5 nM final; apparent Ki=IC50/(1+C/Kd), Kd=2 nM

Structure (SMILES)	Ki [µM]
Cc1cc(C)nc(N2CC3CN(C(=O)c4cnccc4-n4ccnn4)CC3C2)n1 (stereo not shown) [Example 329, [5-(4,6-Dimethyl-pyrimidin-2-yl)-hexahydro-pyrrolo[3,4-c]pyrrol-2-yl]-(4-[1,2,3]triazol-1-yl-pyridin-3-yl)-methanone]	10
O=S(=O)(c1ccccc1-c1ccccc1)N1CC2CN(c3ccc(C(F)(F)F)cn3)CC2C1 (stereo not shown) [Example 356, 2-([1,1′-Biphenyl]-2-ylsulfonyl)-5-(5-(trifluoromethyl)pyridin-2-yl)octahydropyrrolo[3,4-c]pyrrole]	10
Cc1nc(N2CC3CN(C(=O)c4cc(F)ccc4-c4ncccn4)CC3C2)cc(=O)[nH]1 (stereo not shown) [Example 256, 6-{5-[(5-Fluoro-2-pyrimidin-2-ylphenyl)carbonyl]hexahydropyrrolo[3,4-c]pyrrol-2(1H)-yl}-2-methylpyrimidin-4(3H)-one]	10
COc1ccccc1C(=O)N1CC2CN(c3nccc(C)n3)CC2C1 (stereo not shown) [Example 200, (2-Methoxy-phenyl)-[5-(4-methyl-pyrimidin-2-yl)-hexahydro-pyrrolo[3,4-c]pyrrol-2-yl]-methanone]	10
COc1cc(Br)c(C(=O)N2CC3CN(c4nc(C)cc(C)n4)CC3C2)cc1OC (stereo not shown) [Example 333, (2-Bromo-4,5-dimethoxy-phenyl)-[5-(4,6-dimethyl-pyrimidin-2-yl)-hexahydro-pyrrolo[3,4-c]pyrrol-2-yl]-methanone]	10
COc1cc(C(=O)N2CC3CN(c4nc(C)cc(C)n4)CC3C2)c(-n2ccnn2)cc1OC (stereo not shown) [Example 341, (4,5-Dimethoxy-2-[1,2,3]triazol-1-yl-phenyl)-[5-(4,6-dimethyl-pyrimidin-2-yl)-hexahydro-pyrrolo[3,4-c]pyrrol-2-yl]-methanone]	10
Cc1cc(C)nc(N2CC3CN(C(=O)c4ccccc4-c4ncnn4C)CC3C2)n1 (stereo not shown) [Example 307, 2-(4,6-Dimethylpyrimidin-2-yl)-5-{[2-(1-methyl-1H-1,2,4-triazol-5-yl)phenyl]carbonyl}octahydropyrrolo[3,4-c]pyrrole]	10
